## AlphaSeq binding of Ab-91 heavy chain variants to a spike HR2 peptide

The target is the same throughout: PDVDLGDISGINAS, from the HR2 region of SARS-CoV-2 spike.

Parent scFv Ab-91: VL joined to VH by three GGGGS repeats. Changes lie in the heavy chain CDRs alone.
VL: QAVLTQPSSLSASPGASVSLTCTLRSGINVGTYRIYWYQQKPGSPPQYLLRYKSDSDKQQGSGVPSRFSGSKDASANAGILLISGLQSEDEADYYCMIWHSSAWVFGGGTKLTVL
VH: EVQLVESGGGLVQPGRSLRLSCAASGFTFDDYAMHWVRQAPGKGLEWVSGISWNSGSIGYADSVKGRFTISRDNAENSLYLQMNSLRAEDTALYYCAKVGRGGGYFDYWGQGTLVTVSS

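The starting antibody came from a phage panning campaign against this peptide. AAYL51 was designed without a model: most single CDR substitutions and a random sample of double and triple ones. The assay is AlphaSeq: two haploid yeast populations carry antibody and antigen on their surface. Mating (16 h, 30 °C) was followed by selection of diploids and sequencing of their barcodes. Read counts were normalised to the haploid input and turned into Kd by a linear fit to BCL2-family pairs of known affinity, for each replicate. The assay was run in three technical replicates.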

Positions count from residue 1 of the parent VH; R101Q puts Q in place of R. The read-out is the apparent dissociation constant on a log10 scale (nM): the lower, the stronger. The mean shown is taken over the replicates in which the pair was detected. A pair that was not seen in any replicate is written "no signal"; this usually means weak binding, but a binder can also be missed. Entries are sorted by rising average, undetected variants last. Empty control strains, which show no peptide, gave a signal in 21% of pairings with library AAYL51; the median was 4.54 and 95% of these signals were weaker than 3.26. No background was subtracted.

changes,mean log10 Kd (nM),seen in
R101Q+G102T+Y105W,2.00,3/3
D30K+Y32W+I58N,2.19,3/3
I58M+D62M+G100M,2.23,3/3
D31A+A33E+V99N,3.34,1/3
S52V+D62R+V64G,3.60,1/3
G26D+G103K+Y105S,3.64,1/3
G26C+A61Q+G100H,3.91,1/3
F29V+V99H+Y105T,3.99,3/3
I58E+Y60C+V99F,4.02,3/3
F27W+Y32L+H35Y,4.40,1/3
W53K+A61I+G103H,4.41,3/3
F27C+F29N+G102T,4.50,1/3
W53P+G59D+K65D,4.68,3/3
M34Y+K65D+V99Q,4.74,2/3
Y60R+G100I+Y108H,4.76,1/3
G50S+W53S+S63T,4.78,3/3
D30A+N54C+S57R,4.84,2/3
F29K+S63P+G100S,4.97,2/3
F29D+A33M+G56N,4.99,1/3
S52C+D62K+G100D,5.07,2/3
S57W+G59L,5.32,2/3
F29H+I51D+W53T,5.34,3/3
H35T+G56A+G59P,5.34,2/3
G26R+Y32V+G56W,5.36,2/3
G26T+D30T+G102Y,5.36,3/3
T28P+V99P,5.37,3/3
G103K+Y105W,5.52,2/3
G26C+S52D+Y105T,5.92,3/3
I51Y+Y60G,no signal,0/3
D31P+A61M+G102S,no signal,0/3
I51L+W53Y+S55D,no signal,0/3
S52I+Y60R+D62T,no signal,0/3
D31P+M34R+K65W,no signal,0/3
F29G+Y32E+I51Q,no signal,0/3
V64L+K65Q+R101I,no signal,0/3
F29P+G50K+G100L,no signal,0/3
F29L+H35C+D107F,no signal,0/3
G26V+F29L+I51D,no signal,0/3
A33V+I58T+Y60P,no signal,0/3
F27E+Y60N+G102H,no signal,0/3
F27P+V64L,no signal,0/3
M34K+S55I+G102E,no signal,0/3
D31N+G59Q+G100Y,no signal,0/3
S52R+I58A,no signal,0/3
I58H+A61H+G100T,no signal,0/3

Picked from the list: the 5 lowest averages where every replicate gave a value.

{"changes": "R101Q+G102T+Y105W", "mean log10 Kd (nM)": "2.00", "seen in": "3/3"}
{"changes": "D30K+Y32W+I58N", "mean log10 Kd (nM)": "2.19", "seen in": "3/3"}
{"changes": "I58M+D62M+G100M", "mean log10 Kd (nM)": "2.23", "seen in": "3/3"}
{"changes": "F29V+V99H+Y105T", "mean log10 Kd (nM)": "3.99", "seen in": "3/3"}
{"changes": "I58E+Y60C+V99F", "mean log10 Kd (nM)": "4.02", "seen in": "3/3"}

From the AlphaSeq antibody data of Engelhart et al. 2022 (doi:10.1038/s41597-022-01779-4), copy in the FLAb collection.